Values joined by “and” are separate entries in the source; they are usually repeats but may differ in a detail not shown here. Equal entries are not always repeated. Where two headings read alike, the source gives them in different places.
Tests used:
[1] = tested on: IGROV1 cells; test: Cell viability, CellTiter Glo, IGROV1; settings: 72h
[2] = biological target: TAF1(2) bromodomain (Homo sapiens, UniProt P21675); test: Eurofins/DiscoverX KdELECT, TAF1(2) bromodomain IC50; settings: read-out: TAF1(2) IC50, 11-point 3-fold dilution, top concentration 10,000 nM
[3] = biological target: FLT3(D835V) (Homo sapiens, UniProt P36888, D835V); test: Eurofins/DiscoverX cell free kinase assay, percent control; settings: for per_control_1000nM FLT3(D835V): 1000 nM compound; for per_control_10000nM FLT3(D835V): 10000 nM compound
[4] = biological target: KIT (Homo sapiens, UniProt P10721); test: as above; settings: for per_control_1000nM KIT: 1000 nM compound; for per_control_10000nM KIT: 10000 nM compound
[5] = tested on: FLT3(ITD,D835V); test: as above; settings: for per_control_1000nM FLT3(ITD,D835V): 1000 nM compound; for per_control_10000nM FLT3(ITD,D835V): 10000 nM compound
[6] = biological target: FLT3_autoinhibited (Homo sapiens, UniProt P36888); test: as above; settings: for per_control_1000nM FLT3_autoinhibited: 1000 nM compound; for per_control_10000nM FLT3_autoinhibited: 10000 nM compound
[7] = tested on: FLT3(ITD,F691L); test: as above; settings: for per_control_1000nM FLT3(ITD,F691L): 1000 nM compound; for per_control_10000nM FLT3(ITD,F691L): 10000 nM compound
[8] = biological target: T1, FLT3 (Homo sapiens, UniProt P36888); test: as above; settings: for per_control_1000nM FLT3: 1000 nM compound; for per_control_10000nM FLT3: 10000 nM compound
[9] = tested on: FLT3(ITD); test: as above; settings: for per_control_1000nM FLT3(ITD): 1000 nM compound; for per_control_10000nM FLT3(ITD): 10000 nM compound
[10] = biological target: PDGFRB (Homo sapiens, UniProt P09619); test: as above; settings: for per_control_1000nM PDGFRB: 1000 nM compound; for per_control_10000nM PDGFRB: 10000 nM compound
[11] = biological target: T1, FLT3; test: Eurofins/DiscoverX KdELECT, FLT3 kinase IC50; settings: read-out: FLT3 IC50, 11-point 3-fold dilution, top concentration 10,000 nM
[12] = biological target: TAF1(2) (Homo sapiens, UniProt P21675); test: Eurofins/DiscoverX cell free bromodomain assay, percent control; settings: for per_control_1000nM TAF1(2): 1000 nM compound; for per_control_10000nM TAF1(2): 10000 nM compound
[13] = tested on: HDQP1 cells; test: Cell viability, CellTiter Glo, HDQP1; settings: read-out: HDQP1 IC50, individual dose-response curve (CellTiter Glo); 72h, one independent experiment per value
[14] = tested on: MOLM13 cells; test: Cell viability, CellTiter Glo, MOLM13; settings: 72h
[15] = tested on: DU4475 cells; test: Cell viability, CellTiter Glo, DU4475; settings: 72h
[16] = read-out: IGROV1 IC50 (CellTiter Glo), mean of n = 3 independent experiments
[17] = read-out: MOLM13 IC50 (CellTiter Glo), mean of n = 3 independent experiments

Sequences of proteins named here, by UniProt entry; tags and fusion partners are left off. A change or cut given only in a name is not applied to a line headed by its entry. Residues count along the entry.
UniProt P21675, 1519-1628 limits assumed: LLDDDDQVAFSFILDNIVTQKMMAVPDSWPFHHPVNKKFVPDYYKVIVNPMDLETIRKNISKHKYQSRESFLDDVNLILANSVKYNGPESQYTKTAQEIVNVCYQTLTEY
UniProt P36888, 27-993 limits assumed: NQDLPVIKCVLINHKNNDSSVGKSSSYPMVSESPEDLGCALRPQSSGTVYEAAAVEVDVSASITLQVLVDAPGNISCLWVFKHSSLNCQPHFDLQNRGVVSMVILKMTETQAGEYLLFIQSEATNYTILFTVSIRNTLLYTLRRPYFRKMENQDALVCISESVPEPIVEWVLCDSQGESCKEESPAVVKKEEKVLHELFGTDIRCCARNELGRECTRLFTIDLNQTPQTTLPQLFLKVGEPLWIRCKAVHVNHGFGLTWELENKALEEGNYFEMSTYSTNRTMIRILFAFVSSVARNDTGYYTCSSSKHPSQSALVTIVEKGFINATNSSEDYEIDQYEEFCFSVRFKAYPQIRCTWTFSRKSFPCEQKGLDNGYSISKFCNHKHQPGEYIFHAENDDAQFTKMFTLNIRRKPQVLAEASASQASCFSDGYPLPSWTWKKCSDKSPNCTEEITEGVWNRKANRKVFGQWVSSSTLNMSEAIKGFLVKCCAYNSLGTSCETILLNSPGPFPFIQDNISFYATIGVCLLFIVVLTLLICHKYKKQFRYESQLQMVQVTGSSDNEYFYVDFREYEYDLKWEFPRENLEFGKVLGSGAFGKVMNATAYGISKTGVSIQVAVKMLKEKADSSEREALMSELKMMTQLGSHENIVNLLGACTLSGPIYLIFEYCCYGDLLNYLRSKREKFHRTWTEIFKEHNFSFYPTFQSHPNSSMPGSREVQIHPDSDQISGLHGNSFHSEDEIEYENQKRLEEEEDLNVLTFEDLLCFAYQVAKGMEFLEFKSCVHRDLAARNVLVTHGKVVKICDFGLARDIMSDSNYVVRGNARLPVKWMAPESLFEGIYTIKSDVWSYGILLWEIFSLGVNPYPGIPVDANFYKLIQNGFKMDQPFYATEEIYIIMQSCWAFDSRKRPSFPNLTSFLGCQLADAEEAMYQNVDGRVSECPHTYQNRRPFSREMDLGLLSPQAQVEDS
UniProt P36888, 564-993 limits assumed: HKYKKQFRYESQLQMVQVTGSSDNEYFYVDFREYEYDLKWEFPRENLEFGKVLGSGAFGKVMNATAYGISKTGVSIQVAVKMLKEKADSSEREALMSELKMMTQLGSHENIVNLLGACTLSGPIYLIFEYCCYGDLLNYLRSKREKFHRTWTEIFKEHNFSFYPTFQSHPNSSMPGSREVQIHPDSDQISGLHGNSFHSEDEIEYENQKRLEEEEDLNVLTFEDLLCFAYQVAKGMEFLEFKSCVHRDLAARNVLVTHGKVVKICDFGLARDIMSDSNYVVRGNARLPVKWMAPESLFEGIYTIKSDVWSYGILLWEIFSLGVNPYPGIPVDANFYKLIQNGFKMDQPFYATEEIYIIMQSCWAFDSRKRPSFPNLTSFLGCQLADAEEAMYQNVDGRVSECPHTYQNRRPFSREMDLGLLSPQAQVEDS
UniProt P36888, 27-993 D835V limits assumed: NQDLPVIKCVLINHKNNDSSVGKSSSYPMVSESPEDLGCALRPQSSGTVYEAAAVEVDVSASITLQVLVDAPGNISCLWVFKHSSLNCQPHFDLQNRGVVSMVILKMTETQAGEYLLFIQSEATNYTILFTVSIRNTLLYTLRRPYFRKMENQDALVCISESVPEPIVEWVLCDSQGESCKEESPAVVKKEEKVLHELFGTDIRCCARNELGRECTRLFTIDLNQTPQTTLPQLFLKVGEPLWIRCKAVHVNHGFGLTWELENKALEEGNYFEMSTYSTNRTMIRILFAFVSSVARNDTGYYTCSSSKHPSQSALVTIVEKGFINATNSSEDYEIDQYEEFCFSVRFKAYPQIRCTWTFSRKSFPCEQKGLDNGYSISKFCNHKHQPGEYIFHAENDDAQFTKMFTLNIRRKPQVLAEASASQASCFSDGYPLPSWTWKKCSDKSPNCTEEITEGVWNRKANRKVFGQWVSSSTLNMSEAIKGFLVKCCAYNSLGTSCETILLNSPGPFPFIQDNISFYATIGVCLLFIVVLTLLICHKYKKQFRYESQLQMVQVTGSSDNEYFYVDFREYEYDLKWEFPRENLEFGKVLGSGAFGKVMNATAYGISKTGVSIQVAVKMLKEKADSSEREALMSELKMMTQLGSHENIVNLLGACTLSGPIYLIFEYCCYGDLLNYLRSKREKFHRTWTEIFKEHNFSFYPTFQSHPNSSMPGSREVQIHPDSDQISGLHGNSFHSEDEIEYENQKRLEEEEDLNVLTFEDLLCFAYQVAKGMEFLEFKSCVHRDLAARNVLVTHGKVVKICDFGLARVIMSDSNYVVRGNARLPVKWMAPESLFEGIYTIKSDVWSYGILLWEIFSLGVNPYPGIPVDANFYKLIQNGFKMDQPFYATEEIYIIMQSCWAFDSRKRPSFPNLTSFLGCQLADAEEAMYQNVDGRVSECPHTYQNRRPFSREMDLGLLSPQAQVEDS
UniProt P10721, 26-976 limits assumed: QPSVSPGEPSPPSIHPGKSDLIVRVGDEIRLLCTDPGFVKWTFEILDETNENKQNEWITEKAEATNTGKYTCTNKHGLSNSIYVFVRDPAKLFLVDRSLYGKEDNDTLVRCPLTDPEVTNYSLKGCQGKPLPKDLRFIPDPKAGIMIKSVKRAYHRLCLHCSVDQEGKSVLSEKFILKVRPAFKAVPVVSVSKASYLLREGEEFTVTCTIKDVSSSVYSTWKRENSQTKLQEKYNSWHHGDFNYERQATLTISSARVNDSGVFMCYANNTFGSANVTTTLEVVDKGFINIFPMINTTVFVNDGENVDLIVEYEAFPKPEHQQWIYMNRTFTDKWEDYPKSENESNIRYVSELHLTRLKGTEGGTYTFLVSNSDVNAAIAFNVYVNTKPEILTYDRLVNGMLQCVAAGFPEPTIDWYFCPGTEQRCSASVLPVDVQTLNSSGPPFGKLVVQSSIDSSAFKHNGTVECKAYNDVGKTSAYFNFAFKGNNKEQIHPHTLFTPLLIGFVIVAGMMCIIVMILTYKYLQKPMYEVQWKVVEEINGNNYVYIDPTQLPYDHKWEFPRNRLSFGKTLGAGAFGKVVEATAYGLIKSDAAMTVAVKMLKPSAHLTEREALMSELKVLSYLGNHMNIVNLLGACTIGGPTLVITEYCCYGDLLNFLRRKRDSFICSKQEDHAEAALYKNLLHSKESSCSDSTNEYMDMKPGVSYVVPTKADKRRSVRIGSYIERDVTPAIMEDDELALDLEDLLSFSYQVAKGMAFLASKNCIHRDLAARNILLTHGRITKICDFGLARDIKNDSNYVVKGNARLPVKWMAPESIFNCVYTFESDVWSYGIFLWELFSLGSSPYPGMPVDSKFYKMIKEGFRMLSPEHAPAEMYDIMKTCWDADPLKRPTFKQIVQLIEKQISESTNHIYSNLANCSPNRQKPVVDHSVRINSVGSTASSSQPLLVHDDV
UniProt P09619, 33-1106 limits assumed: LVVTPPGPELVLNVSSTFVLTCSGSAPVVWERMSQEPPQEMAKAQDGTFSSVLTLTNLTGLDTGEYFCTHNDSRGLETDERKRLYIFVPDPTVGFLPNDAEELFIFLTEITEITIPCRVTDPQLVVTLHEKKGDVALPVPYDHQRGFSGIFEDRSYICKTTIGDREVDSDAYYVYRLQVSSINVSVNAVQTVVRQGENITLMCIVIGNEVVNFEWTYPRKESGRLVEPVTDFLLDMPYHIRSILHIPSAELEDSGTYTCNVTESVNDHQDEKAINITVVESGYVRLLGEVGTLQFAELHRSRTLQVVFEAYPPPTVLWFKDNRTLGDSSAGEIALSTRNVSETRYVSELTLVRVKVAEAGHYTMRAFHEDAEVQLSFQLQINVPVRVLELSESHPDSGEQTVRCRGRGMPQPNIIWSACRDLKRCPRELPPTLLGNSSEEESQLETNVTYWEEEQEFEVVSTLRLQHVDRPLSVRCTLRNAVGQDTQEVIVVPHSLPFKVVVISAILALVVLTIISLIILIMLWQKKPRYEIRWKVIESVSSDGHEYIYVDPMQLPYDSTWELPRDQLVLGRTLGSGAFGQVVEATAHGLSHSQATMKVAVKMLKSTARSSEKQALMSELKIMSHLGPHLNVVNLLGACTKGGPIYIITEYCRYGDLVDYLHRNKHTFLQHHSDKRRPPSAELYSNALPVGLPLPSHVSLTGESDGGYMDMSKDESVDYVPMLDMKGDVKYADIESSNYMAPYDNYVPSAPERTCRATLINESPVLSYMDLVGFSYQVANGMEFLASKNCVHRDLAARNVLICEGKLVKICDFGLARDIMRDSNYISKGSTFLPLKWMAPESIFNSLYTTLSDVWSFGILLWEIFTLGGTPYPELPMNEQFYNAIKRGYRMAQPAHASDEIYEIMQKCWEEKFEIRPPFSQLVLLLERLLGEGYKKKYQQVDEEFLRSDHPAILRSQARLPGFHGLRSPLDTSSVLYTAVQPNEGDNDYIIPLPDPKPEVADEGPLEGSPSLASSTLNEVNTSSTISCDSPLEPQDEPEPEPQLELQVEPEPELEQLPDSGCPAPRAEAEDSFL

| Compound | IC50 [1, 16] | IC50 [2] | per_control_1000nM FLT3(D835V) [3] | per_control_10000nM FLT3(D835V) [3] | per_control_1000nM KIT [4] | per_control_10000nM KIT [4] | per_control_1000nM FLT3(ITD,D835V) [5] | per_control_10000nM FLT3(ITD,D835V) [5] | per_control_1000nM FLT3_autoinhibited [6] | per_control_10000nM FLT3_autoinhibited [6] | per_control_1000nM FLT3(ITD,F691L) [7] | per_control_10000nM FLT3(ITD,F691L) [7] | per_control_1000nM FLT3 [8] | per_control_10000nM FLT3 [8] | per_control_1000nM FLT3(ITD) [9] | per_control_10000nM FLT3(ITD) [9] | per_control_1000nM PDGFRB [10] | per_control_10000nM PDGFRB [10] | IC50 [11] | per_control_1000nM TAF1(2) [12] | further results |
| --- | --- | --- | --- | --- | --- | --- | --- | --- | --- | --- | --- | --- | --- | --- | --- | --- | --- | --- | --- | --- | --- |
| COc1ccc(-c2cc(NC(=O)c3ccc(C(C)(C)C)cc3)n[nH]2)cc1Cl | 13.6 µM | > 10 µM | 2.4 percent control | 1.8 percent control | 0 percent control | 0 percent control | 80 percent control | 23 percent control | 5.5 percent control | 0 percent control | 63 percent control | 35 percent control | 0.2 percent control | 0.05 percent control | 0 percent control | 0 percent control | 0.25 percent control | 0 percent control | < 1 µM | 100 percent control | IC50 ([1]; read-out: IGROV1 IC50, individual dose-response curve (CellTiter Glo), one independent experiment per value, listed as 1245): 16.2 µM and 16.1 µM and 8.7 µM; per_control_10000nM TAF1(2) [12]: 81 percent control; IC50 [13]: > 30 µM; IC50 [14, 17]: 0.316 µM; IC50 ([14]; read-out: MOLM13 IC50, individual dose-response curve (CellTiter Glo), one independent experiment per value, listed as 1245): 0.205 µM and 0.489 µM and 0.255 µM; IC50 ([15]; read-out: DU4475 IC50, individual dose-response curve (CellTiter Glo), one independent experiment per value, listed as 1245): 25.3 µM and 26.7 µM and > 30 µM |
| COc1ccc(-c2cc(NC(=O)c3ccc(C(C)(C)C)cc3)n[nH]2)cc1C | 8.9 µM | > 10 µM | 2.7 percent control | 0.6 percent control | 0 percent control | 0.1 percent control | 60 percent control | 15 percent control | 6 percent control | 0.4 percent control | 77 percent control | 34 percent control | 0.2 percent control | 0.2 percent control | 2.5 percent control | 0 percent control | 0.15 percent control | 0.05 percent control | < 1 µM | 88 percent control | IC50 ([1]; read-out: IGROV1 IC50, individual dose-response curve (CellTiter Glo), one independent experiment per value, listed as 1244): 17.5 µM and 7 µM and 2.1 µM; per_control_10000nM TAF1(2) [12]: 86 percent control; IC50 [14, 17]: 0.406 µM; IC50 ([14]; read-out: MOLM13 IC50, individual dose-response curve (CellTiter Glo), one independent experiment per value, listed as 1244): 0.253 µM and 0.623 µM and 0.342 µM; IC50 ([15]; read-out: DU4475 IC50 (CellTiter Glo), mean of n = 3 independent experiments): 18.8 µM; IC50 ([15]; read-out: DU4475 IC50, individual dose-response curve (CellTiter Glo), one independent experiment per value, listed as 1244): 15.8 µM and 17.5 µM and 23.2 µM |

Source: article PMC11952222, “Development and comparison of single FLT3-inhibitors to dual FLT3/TAF1-inhibitors as an anti-leukemic approach” (PLOS One, 2025)
